Reference: patent US20230257727

T1: 2-aminobenzamide-AAGVAMPGAEDDVVGSGSK(N3)
T1 chain: AAGVAMPGAEDDVVGSGSK

T2: Target peptide labeled with 5-nitro isatoic anhydride (5-nitro-2-aminobenzamide-AAGVAMPGAEDDVVGSGSK(N3))
T2 chain: AAGVAMPGAEDDVVGSGSK

T3: Target peptide labeled with succinic anhydride (succinic acid-labeled AAGVAMPGAEDDVVGSGSK(N3))
T3 chain: AAGVAMPGAEDDVVGSGSK

B1: Modified cleavase N191C/W192L/N306R/N310D/G651Y/S655G/V656G (SEQ ID NO: 32) (protein)
chain: GEGMWVPQQLPEIAGPLKKAGLKLSPQQISDLTGDPMGAVVALGGCTASFVSPNGLVVTNHHCAYGAIQLNSTAENNLIKNGFNAPTTADEVSAGPNARVFVLDEITDVTKDAKAAIAAAGDDALARTKALEAFEKKLIADCEAEAGFRCRLYSFSGGNTYRLFKNLEIKDVRLAYAPPGSVGKFGGDIDCLMWPRHTGDFAFYRAYVGKDGKPAAFSKDNVPYQPKHWLKFADQPLGAGDFVMVAGYPGSTNRYALAAEFDNTAQWTYPTIARHYKNQIAMVEAAGKQNADIQVKYAATMAGWNRTSKDYDGQLEGFKRIDAAGQKLREEAAVLGWLKGQGAKGQPALDAHAKLLDLLEQSKATRDRDLTLALFNNTAMLGSATQLYRLSIEREKPNAERESGYQERDLPAIEGGLKQLERRYVAAMDRQLQEYWLNEYIKLPADQRVAAVDAWLGGNDAAAVKRALDRLAGTKLGSTEERLKWFAADRKAFEASNDPAIQYAVAVMPTLLKLEQERKTRAGENLAARPVYLQALADYKKSQGEFVYPDANLSLRITFGNVMGYAPKDGMEYTPFTTLEGVVAKETGQDPFDSPKALLDAVAAKRYGGLEDKRIGSVPVNYLSDLDITGGNSGSPVLDAHGKLVGLAFDYNWEGGSSNWVFDPKMTRMIAVDGRYLRWIMQEVYPAPQLLKEMNVGK
B2: Modified cleavase N191F/W192F/N306R/N310G/G651H/V656E (SEQ ID NO: 33) (protein)
chain: GEGMWVPQQLPEIAGPLKKAGLKLSPQQISDLTGDPMGAVVALGGCTASFVSPNGLVVTNHHCAYGAIQLNSTAENNLIKNGFNAPTTADEVSAGPNARVFVLDEITDVTKDAKAAIAAAGDDALARTKALEAFEKKLIADCEAEAGFRCRLYSFSGGNTYRLFKNLEIKDVRLAYAPPGSVGKFGGDIDFFMWPRHTGDFAFYRAYVGKDGKPAAFSKDNVPYQPKHWLKFADQPLGAGDFVMVAGYPGSTNRYALAAEFDNTAQWTYPTIARHYKNQIAMVEAAGKQNADIQVKYAATMAGWNRTSKGYDGQLEGFKRIDAAGQKLREEAAVLGWLKGQGAKGQPALDAHAKLLDLLEQSKATRDRDLTLALFNNTAMLGSATQLYRLSIEREKPNAERESGYQERDLPAIEGGLKQLERRYVAAMDRQLQEYWLNEYIKLPADQRVAAVDAWLGGNDAAAVKRALDRLAGTKLGSTEERLKWFAADRKAFEASNDPAIQYAVAVMPTLLKLEQERKTRAGENLAARPVYLQALADYKKSQGEFVYPDANLSLRITFGNVMGYAPKDGMEYTPFTTLEGVVAKETGQDPFDSPKALLDAVAAKRYGGLEDKRIGSVPVNYLSDLDITGGNSGSPVLDAHGKLVGLAFDHNWESESSNWVFDPKMTRMIAVDGRYLRWIMQEVYPAPQLLKEMNVGK
B3: Modified cleavase N191R/W192L/N306S/N310L/G651T/S655T/V656S (SEQ ID NO: 34) (protein)
chain: GEGMWVPQQLPEIAGPLKKAGLKLSPQQISDLTGDPMGAVVALGGCTASFVSPNGLVVTNHHCAYGAIQLNSTAENNLIKNGFNAPTTADEVSAGPNARVFVLDEITDVTKDAKAAIAAAGDDALARTKALEAFEKKLIADCEAEAGFRCRLYSFSGGNTYRLFKNLEIKDVRLAYAPPGSVGKFGGDIDRLMWPRHTGDFAFYRAYVGKDGKPAAFSKDNVPYQPKHWLKFADQPLGAGDFVMVAGYPGSTNRYALAAEFDNTAQWTYPTIARHYKNQIAMVEAAGKQNADIQVKYAATMAGWNSTSKLYDGQLEGFKRIDAAGQKLREEAAVLGWLKGQGAKGQPALDAHAKLLDLLEQSKATRDRDLTLALFNNTAMLGSATQLYRLSIEREKPNAERESGYQERDLPAIEGGLKQLERRYVAAMDRQLQEYWLNEYIKLPADQRVAAVDAWLGGNDAAAVKRALDRLAGTKLGSTEERLKWFAADRKAFEASNDPAIQYAVAVMPTLLKLEQERKTRAGENLAARPVYLQALADYKKSQGEFVYPDANLSLRITFGNVMGYAPKDGMEYTPFTTLEGVVAKETGQDPFDSPKALLDAVAAKRYGGLEDKRIGSVPVNYLSDLDITGGNSGSPVLDAHGKLVGLAFDTNWETSSSNWVFDPKMTRMIAVDGRYLRWIMQEVYPAPQLLKEMNVGK
B4: Modified cleavase N191S/R196H/N306A/D650G (SEQ ID NO: 35) (protein)
chain: GEGMWVPQQLPEIAGPLKKAGLKLSPQQISDLTGDPMGAVVALGGCTASFVSPNGLVVTNHHCAYGAIQLNSTAENNLIKNGFNAPTTADEVSAGPNARVFVLDEITDVTKDAKAAIAAAGDDALARTKALEAFEKKLIADCEAEAGFRCRLYSFSGGNTYRLFKNLEIKDVRLAYAPPGSVGKFGGDIDSWMWPHHTGDFAFYRAYVGKDGKPAAFSKDNVPYQPKHWLKFADQPLGAGDFVMVAGYPGSTNRYALAAEFDNTAQWTYPTIARHYKNQIAMVEAAGKQNADIQVKYAATMAGWNATSKNYDGQLEGFKRIDAAGQKLREEAAVLGWLKGQGAKGQPALDAHAKLLDLLEQSKATRDRDLTLALFNNTAMLGSATQLYRLSIEREKPNAERESGYQERDLPAIEGGLKQLERRYVAAMDRQLQEYWLNEYIKLPADQRVAAVDAWLGGNDAAAVKRALDRLAGTKLGSTEERLKWFAADRKAFEASNDPAIQYAVAVMPTLLKLEQERKTRAGENLAARPVYLQALADYKKSQGEFVYPDANLSLRITFGNVMGYAPKDGMEYTPFTTLEGVVAKETGQDPFDSPKALLDAVAAKRYGGLEDKRIGSVPVNYLSDLDITGGNSGSPVLDAHGKLVGLAFGGNWESVSSNWVFDPKMTRMIAVDGRYLRWIMQEVYPAPQLLKEMNVGK
B5: Modified cleavase N191T/R196H/N306A/D650G (SEQ ID NO: 36) (protein)
chain: GEGMWVPQQLPEIAGPLKKAGLKLSPQQISDLTGDPMGAVVALGGCTASFVSPNGLVVTNHHCAYGAIQLNSTAENNLIKNGFNAPTTADEVSAGPNARVFVLDEITDVTKDAKAAIAAAGDDALARTKALEAFEKKLIADCEAEAGFRCRLYSFSGGNTYRLFKNLEIKDVRLAYAPPGSVGKFGGDIDTWMWPHHTGDFAFYRAYVGKDGKPAAFSKDNVPYQPKHWLKFADQPLGAGDFVMVAGYPGSTNRYALAAEFDNTAQWTYPTIARHYKNQIAMVEAAGKQNADIQVKYAATMAGWNATSKNYDGQLEGFKRIDAAGQKLREEAAVLGWLKGQGAKGQPALDAHAKLLDLLEQSKATRDRDLTLALFNNTAMLGSATQLYRLSIEREKPNAERESGYQERDLPAIEGGLKQLERRYVAAMDRQLQEYWLNEYIKLPADQRVAAVDAWLGGNDAAAVKRALDRLAGTKLGSTEERLKWFAADRKAFEASNDPAIQYAVAVMPTLLKLEQERKTRAGENLAARPVYLQALADYKKSQGEFVYPDANLSLRITFGNVMGYAPKDGMEYTPFTTLEGVVAKETGQDPFDSPKALLDAVAAKRYGGLEDKRIGSVPVNYLSDLDITGGNSGSPVLDAHGKLVGLAFGGNWESVSSNWVFDPKMTRMIAVDGRYLRWIMQEVYPAPQLLKEMNVGK
B6: Modified cleavase N191M/R196H/N306A/D650G (SEQ ID NO: 37) (protein)
chain: GEGMWVPQQLPEIAGPLKKAGLKLSPQQISDLTGDPMGAVVALGGCTASFVSPNGLVVTNHHCAYGAIQLNSTAENNLIKNGFNAPTTADEVSAGPNARVFVLDEITDVTKDAKAAIAAAGDDALARTKALEAFEKKLIADCEAEAGFRCRLYSFSGGNTYRLFKNLEIKDVRLAYAPPGSVGKFGGDIDMWMWPHHTGDFAFYRAYVGKDGKPAAFSKDNVPYQPKHWLKFADQPLGAGDFVMVAGYPGSTNRYALAAEFDNTAQWTYPTIARHYKNQIAMVEAAGKQNADIQVKYAATMAGWNATSKNYDGQLEGFKRIDAAGQKLREEAAVLGWLKGQGAKGQPALDAHAKLLDLLEQSKATRDRDLTLALFNNTAMLGSATQLYRLSIEREKPNAERESGYQERDLPAIEGGLKQLERRYVAAMDRQLQEYWLNEYIKLPADQRVAAVDAWLGGNDAAAVKRALDRLAGTKLGSTEERLKWFAADRKAFEASNDPAIQYAVAVMPTLLKLEQERKTRAGENLAARPVYLQALADYKKSQGEFVYPDANLSLRITFGNVMGYAPKDGMEYTPFTTLEGVVAKETGQDPFDSPKALLDAVAAKRYGGLEDKRIGSVPVNYLSDLDITGGNSGSPVLDAHGKLVGLAFGGNWESVSSNWVFDPKMTRMIAVDGRYLRWIMQEVYPAPQLLKEMNVGK
B7: Modified cleavase N191V/N306A/D650S (SEQ ID NO: 38) (protein)
chain: GEGMWVPQQLPEIAGPLKKAGLKLSPQQISDLTGDPMGAVVALGGCTASFVSPNGLVVTNHHCAYGAIQLNSTAENNLIKNGFNAPTTADEVSAGPNARVFVLDEITDVTKDAKAAIAAAGDDALARTKALEAFEKKLIADCEAEAGFRCRLYSFSGGNTYRLFKNLEIKDVRLAYAPPGSVGKFGGDIDVWMWPRHTGDFAFYRAYVGKDGKPAAFSKDNVPYQPKHWLKFADQPLGAGDFVMVAGYPGSTNRYALAAEFDNTAQWTYPTIARHYKNQIAMVEAAGKQNADIQVKYAATMAGWNATSKNYDGQLEGFKRIDAAGQKLREEAAVLGWLKGQGAKGQPALDAHAKLLDLLEQSKATRDRDLTLALFNNTAMLGSATQLYRLSIEREKPNAERESGYQERDLPAIEGGLKQLERRYVAAMDRQLQEYWLNEYIKLPADQRVAAVDAWLGGNDAAAVKRALDRLAGTKLGSTEERLKWFAADRKAFEASNDPAIQYAVAVMPTLLKLEQERKTRAGENLAARPVYLQALADYKKSQGEFVYPDANLSLRITFGNVMGYAPKDGMEYTPFTTLEGVVAKETGQDPFDSPKALLDAVAAKRYGGLEDKRIGSVPVNYLSDLDITGGNSGSPVLDAHGKLVGLAFSGNWESVSSNWVFDPKMTRMIAVDGRYLRWIMQEVYPAPQLLKEMNVGK
B8: unnamed (protein)
chain: GEGMWVPQQLPEIAGPLKKAGLKLSPQQISDLTGDPMGAVVALGGCTASFVSPNGLVVTNHHCAYGAIQLNSTAENNLIKNGFNAPTTADEVSAGPNARVFVLDEITDVTKDAKAAIAAAGDDALARTKALEAFEKKLIADCEAEAGFRCRLYSFSGGNTYRLFKNLEIKDVRLAYAPPGSVGKFGGDIDCLMWPKHTGDFAFYRAYVGKDGKPAAFSKDNVPYQPKHWLKFADQPLGAGDFVMVAGYPGSTNRYALAAEFDNTAQWTYPTIARHYKNQIAMVEAAGKQNADIQVKYAATMAGWNRTSKDYDGQLEGFKRIDAAGQKLREEAAVLGWLKGQGAKGQPALDAHAKLLDLLEQSKATRDRDLTLALFNNTAMLGSATQLYRLSIEREKPNAERESGYQERDLPAIEGGLKQLERRYVAAMDRQLQEYWLNEYIKLPADQRVAAVDAWLGGNDAAAVKRALDRLAGTKLGSTEERLKWFAADRKAFEASNDPAIQYAVAVMPTLLKLEQERKTRAGENLAARPVYLQALADYKKSQGEFVYPDANLSLRITFGNVMGYAPKDGMEYTPFTTLEGVVAKETGQDPFDSPKALLDAVAAKRYGGLEDKRIGSVPVNYLSDLDITGGNSGSPVLDAHGKLVGLAFDYNWEGGSSNWVFDPKMTRMIAVDGRYLRWIMQEVYPAPQLLKEMNVGK

Assays:
[1] = target: T1, 2-aminobenzamide-AAGVAMPGAEDDVVGSGSK(N3)
[2] = target: T2, Target peptide labeled with 5-nitro …
[3] = target: T3, Target peptide labeled with succinic …

Row | Protein | Product Removed by Modified Cleavase [1] | Product Removed by Modified Cleavase [2] | also measured
1 | B1 | 2-aminobenzamide-P1 | – | –
2 | B2 | 2-aminobenzamide-P1 | – | –
3 | B3 | 2-aminobenzamide-P1 | – | –
4 | B4 | – | 5-nitro-2-aminobenzamide-P1 | –
5 | B5 | – | 5-nitro-2-aminobenzamide-P1 | –
6 | B6 | – | 5-nitro-2-aminobenzamide-labeled P1 | –
7 | B7 | – | – | Product Removed by Modified Cleavase [3]: Succinic acid-labeled Pl
8 | B8 | 2-aminobenzamide-P1 | – | –
